The test concerns the target T1, Steroid hormone receptor ERR2 (Homo sapiens, UniProt O95718).
T1 sequence (O95718 whole entry): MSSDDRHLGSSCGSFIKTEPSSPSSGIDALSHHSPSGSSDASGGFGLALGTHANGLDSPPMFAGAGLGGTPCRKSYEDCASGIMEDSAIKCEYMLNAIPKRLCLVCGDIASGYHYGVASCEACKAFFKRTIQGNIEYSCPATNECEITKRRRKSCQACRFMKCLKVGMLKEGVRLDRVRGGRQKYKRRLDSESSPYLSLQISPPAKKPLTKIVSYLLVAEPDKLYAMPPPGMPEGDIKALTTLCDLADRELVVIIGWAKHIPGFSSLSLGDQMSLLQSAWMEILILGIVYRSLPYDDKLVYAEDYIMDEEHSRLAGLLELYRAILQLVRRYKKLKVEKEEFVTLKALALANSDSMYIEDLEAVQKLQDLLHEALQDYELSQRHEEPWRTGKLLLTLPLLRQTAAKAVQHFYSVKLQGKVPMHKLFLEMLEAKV

pIC50: −log10 of the molar value.

As a reminder, the pIC50 is the IC50 on a negative log10 scale, so that one unit is a factor of ten. A low value points to a high IC50. With `CN(C)CCOc1ccc(/C(=C(/CCCO)c2ccccc2)c2ccc(O)cc2)cc1`, the pIC50 is 5.46.

Values taken from ChEMBL document CHEMBL3997814, “Identification of novel inverse agonists of estrogen-related receptors ERRγ and ERRβ” (Bioorg Med Chem, 2017).
